# Experimental data taken from PubChem BioAssay AID2462 (Broad Institute, 2010).
# Only a part is listed here, and it is no random draw. The source made the active and inactive calls.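 The calls were made as follows: active = over half of replicate activation scores above 10%, or exactly half above 10 with the replicate mean above 10; inconclusive = replicate mean below 10 yet half the replicates above 10; inactive = over half of replicates below 10.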
# Assay: inducers of caspase signal in A1-primed MEFs – cell-based, luminescence, HTS, A1 inhibitor project, primary screen (AID 2462)
# Details: MEF A1-2A-BIM cells, Caspase-Glo 3/7 luminescence, 3 h; hits give high values; percent of clofoctol response, vehicle zero; concentration not given here
row,Structure (SMILES),caspase activation
1,CN1CCC(Nc2ccc(Cl)cc2)CC1,inactive: 1.14%
2,CCCOc1ccc(C)cc1CN(CCCl)CCCl,inactive: 1.48%
3,COc1cccc(C(=O)N(c2cc(C)cc(C)c2)C2CCN(C(=O)OC(C)(C)C)CC2)c1,inactive: 0.356%
4,COc1cc(OC)cc(C(=O)NCC2(N3CCOCC3)CCCCC2)c1,inactive: -0.949%
5,CCC(CO)(C(=O)OC1CN2CCC1CC2)c1ccccc1 (centres undefined),inactive: 1.03%
6,CC(C)(C)OC(=O)N1CCC(Nc2ccccc2)CC1,inactive: 1.21%
7,O=C(O)C1(Nc2ccccc2)CCN(Cc2ccccc2)CC1,inactive: 0.182%
8,CCCOc1ccc(C(=O)NCC2(N(C)C)CCCCC2)cc1,inactive: 0.368%
9,CCOc1ncccc1C(=O)NCC1(N2CCOCC2)CCCCC1,inactive: 0.175%
10,CN1CCC(Nc2ccc(F)c(Cl)c2)CC1,inactive: -0.862%
11,O=C(NCC1(N2CCCCC2)CCCCC1)c1ccco1,inactive: 0.441%
12,CN(C)c1ccc(C(=O)NCC2(N3CCCCC3)CCCCC2)cc1,inactive: 0.695%
13,CCN1CCC(Nc2cccc(F)c2)CC1,inactive: -0.525%
14,Cc1ccc(C(=O)NCC2(N3CCCCC3)CCCCC2)o1,inactive: -0.123%
15,Fc1ccccc1NC1CCN(Cc2ccccc2)CC1,inactive: -0.365%
16,COc1cc(OC)cc(C(=O)NCC2(N3CCCCC3)CCCCC2)c1,inactive: 1.29%
17,CN(C)C1(CNC(=O)c2cccc(C#N)c2)CCCCC1,inactive: 0.284%
18,c1ccc(CN2CCC(Nc3ccccc3)CC2)cc1,inactive: 0.473%
19,CCCN1CCC(Nc2cc(OC)cc(OC)c2)CC1,inactive: -1.13%
20,N#Cc1ccc(C(=O)NCC2(N3CCCCC3)CCCCC2)cc1,inactive: -0.374%
21,CC(C)(C)OC(=O)N1CCC(N(C(=O)c2ccccc2)c2ccc(Cl)cc2)CC1,inactive: 0.0771%
22,CCc1cc(C(=O)NCC2(N3CCCCC3)CCCCC2)sc1C,inactive: -0.212%
23,O=C(OC1CN2CCC1CC2)C1c2ccccc2C=Cc2ccccc21 (centres undefined),inactive: -0.74%
24,CCOC(=O)N1CCC(Nc2ccc(C)cc2)CC1,inactive: -0.186%
25,N/C(=N\O)c1c(N)no[n+]1[O-],inactive: -1.22%
26,COc1ccc(C(=O)NCC2(N3CCOCC3)CCCCC2)cc1OC,inactive: -0.108%
27,COc1cc(C(=O)NCC2(N3CCOCC3)CCCCC2)cc(OC)c1C,inactive: -0.409%
28,O=C(NCC1(N2CCOCC2)CCCCC1)c1cc(Br)ccc1Cl,inactive: -1.42%
29,CCCOc1ccc(C(=O)NCC2(N(C)C)CCCCC2)cc1OC,inactive: 1.09%
